This is an account of results in article PMC3508077 (Bioorganic & medicinal chemistry, 2012).

Where only a bound is given, the exact number is not on record here.

In test [1] the test system is NAD(P)H:quinone reductase 1 (QR1). Put plainly: QR1 induction assay in Hepa 1c1c7 murine hepatoma cells. Format: cell-based. To be noted: Hepa 1c1c7 cells; given in nM in the text.
For test [2] the test system is unchanged. Put plainly: cells. The conditions noted are these: Mus musculus, 48 h, read-out: CD (concentration that doubles the activity).

Turning to `Fc1cccc(-c2nc(-c3ccccc3)cs2)c1F` [Compound 9b, 2-(2,3-Difluorophenyl)-4-phenylthiazole], in test [1], the “CD (concentration that doubles QR1 activity)” value (from here on “CD”) is reported as 192 nM. The EC (2-fold QR1 activity) in test [2] was > 50 µM. Turning to `COc1cccc(-c2csc(-c3ccccc3)n2)c1` [Compound 9n, 4-(3-Methoxyphenyl)-2-phenylthiazole], the “CD” value in test [1] turned out to be 117 nM. Moreover, in test [2], the EC (2-fold QR1 activity) was > 50 µM. Consider `Clc1cccc(-c2nc(-c3ccccc3)cs2)c1Cl` [Compound 9c, 2-(2,3-Dichlorophenyl)-4-phenylthiazole], for which, in test [1], the “CD” value is given as 360 nM. As to `COc1cccc(-c2csc(-c3cccc(OC)c3)n2)c1` [Compound 9o], the “CD” value in test [1] came to 87 nM. The EC (2-fold QR1 activity) in test [2] is > 50 µM.
